Ab-14 light chain CDR variants: yeast mating affinities

Source: Li et al. 2023 (doi:10.1038/s41467-023-39022-2), MIT Lincoln Laboratory and A-Alpha Bio; data file from the FLAb repository.

Antigen: PDVDLGDISGINAS, a 14-residue peptide of the SARS-CoV-2 spike HR2 region.

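This is the validation round: designs drawn from the data on random variants, tested in the same kind of assay. Several design methods are mixed in this list. In AlphaSeq, yeast of one mating type display the scFv and yeast of the other type display the target. Pairs that bind mate more often; barcode pairs of the diploids are counted by sequencing. Scores were corrected for input abundance and mapped to Kd with protein pairs of known affinity run in the same pool. Each pool was mated in six replicate cultures.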

Parent: Ab-14, a human scFv built as VH, a (GGGGS)3 linker, VL. Only the CDRs of the light chain vary.
VH: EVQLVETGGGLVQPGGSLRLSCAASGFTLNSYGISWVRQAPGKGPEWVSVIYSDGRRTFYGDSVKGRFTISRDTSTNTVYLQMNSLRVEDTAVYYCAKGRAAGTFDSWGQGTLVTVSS
VL: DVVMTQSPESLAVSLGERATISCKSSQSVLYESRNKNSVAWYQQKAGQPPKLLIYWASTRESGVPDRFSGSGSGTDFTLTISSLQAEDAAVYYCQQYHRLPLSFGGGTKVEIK

Sequences are complete VL domains. Values are apparent Kd, the geometric mean of the replicates that gave a signal; lower means stronger binding.

| # | VL | Kd (apparent) | seen in |
|---|---|---|---|
| 1 | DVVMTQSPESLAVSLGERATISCKWSQSVLYESRNKNSVAWYQQKAGQPPKLLIYGASTRESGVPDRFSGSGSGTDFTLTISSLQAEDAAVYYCQQYHRLPLSFGGGTKVEIK | 2.4 nM | 6/6 |
| 2 | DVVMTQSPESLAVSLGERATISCKFEQSHLYESRNKNSVAWYQQKAGQPPKLLIYNASTRESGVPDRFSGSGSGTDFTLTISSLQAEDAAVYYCQQYHRLPLSFGGGTKVEIK | 960 pM | 6/6 |
| 3 | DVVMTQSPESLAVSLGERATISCKCEQSWGYESRVKNNVAWYQQKAGQPPKLLIYNASTRESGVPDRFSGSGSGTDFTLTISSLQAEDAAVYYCQQYHRLPLSFGGGTKVEIK | 1.3 nM | 6/6 |
| 4 | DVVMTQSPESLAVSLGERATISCKLDQKDRVNGMACYNVAWYQQKAGQPPKLLIYDSNNRLDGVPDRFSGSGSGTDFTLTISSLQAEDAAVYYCQQYHRLPLIFGGGTKVEIK | 7.7 nM | 6/6 |
| 5 | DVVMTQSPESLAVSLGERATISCHISMSVGLTSFNKNSVAWYQQKAGQPPKLLIYENSTRENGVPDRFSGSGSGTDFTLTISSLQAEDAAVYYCQQYDRLPLSFGGGTKVEIK | 79 nM | 6/6 |
| 6 | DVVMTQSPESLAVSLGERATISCKLMGSMLYEQRMKNSVAWYQQKAGQPPKLLIYQASTRMSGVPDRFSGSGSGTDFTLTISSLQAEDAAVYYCQQYHRLPLSFGGGTKVEIK | 9.7 nM | 6/6 |
| 7 | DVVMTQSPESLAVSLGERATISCKSSQSVLYESRNKNSVAWYQQKAGQPPKLLIYWASTRELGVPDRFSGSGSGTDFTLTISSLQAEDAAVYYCKQPHRLPLSFGGGTKVEIK | 32 nM | 1/6 |
| 8 | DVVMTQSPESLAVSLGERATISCKSSQSVLYESTNKNSVAWYQQKAGQPPKLLIYWASTREYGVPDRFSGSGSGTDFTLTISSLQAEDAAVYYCQQYMRLPLSFGGGTKVEIK | 45 nM | 4/6 |
| 9 | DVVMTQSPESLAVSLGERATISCKASPSEGYESRNKNSVAWYQQKAGQPPKLLIYNASYRESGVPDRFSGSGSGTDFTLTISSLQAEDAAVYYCQQYHRLPLSFGGGTKVEIK | 1.6 nM | 6/6 |
| 10 | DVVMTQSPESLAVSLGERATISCSTMHLSFGHPYEQANVAWYQQKAGQPPKLLIYDASNKVSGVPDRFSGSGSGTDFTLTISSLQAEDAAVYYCQQYHRLPLGFGGGTKVEIK | 1.8 nM | 6/6 |
| 11 | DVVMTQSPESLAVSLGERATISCNVGQSMDGEHRNKNSVAWYQQKAGQPPKLLIYHQSTREDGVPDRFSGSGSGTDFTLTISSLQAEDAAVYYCQHYHRLPLSFGGGTKVEIK | 130 nM | 4/6 |
| 12 | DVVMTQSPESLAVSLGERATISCKLFQSELYESRHANNVAWYQQKAGQPPKLLIYNASQRESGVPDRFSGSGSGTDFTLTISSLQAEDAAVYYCQQYHRLPLSFGGGTKVEIK | 650 pM | 6/6 |
| 13 | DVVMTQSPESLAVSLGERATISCKSSQSVLYESRMWNSVAWYQQKAGQPPKLLIYDASTRESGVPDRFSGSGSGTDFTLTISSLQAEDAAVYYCQQYHRLPLSFGGGTKVEIK | 1.6 nM | 6/6 |
| 14 | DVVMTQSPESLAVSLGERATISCKISQSCLYESRVKNSVAWYQQKAGQPPKLLIYDASTRESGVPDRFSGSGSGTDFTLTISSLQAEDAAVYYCQQYVRLPFSFGGGTKVEIK | 980 pM | 6/6 |

Extract of 2 entries:

VL	Kd (apparent)	seen in
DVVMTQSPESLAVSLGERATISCKSSQSVLYESRNKNSVAWYQQKAGQPPKLLIYWASTRELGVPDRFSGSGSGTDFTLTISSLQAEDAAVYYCKQPHRLPLSFGGGTKVEIK	32 nM	1/6
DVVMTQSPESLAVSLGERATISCKASPSEGYESRNKNSVAWYQQKAGQPPKLLIYNASYRESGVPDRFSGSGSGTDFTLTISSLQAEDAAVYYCQQYHRLPLSFGGGTKVEIK	1.6 nM	6/6

In the paper, a design with two or fewer of six values counts as a poor binder. Of ten entries with the parent sequence, four were seen in most replicates (averages 2.2 nM to 240 nM), three in one and three in none, so single entries are noisy. The range of this assay differs from that of the first round, and the authors advise against merging the two. Three control strains display no target. For all light chain designs, 4% of the pairings with them gave a signal, with a median of 430 nM and one signal in twenty below 38 nM, so weak values seen in few replicates may be background.